Measured values published in ChEMBL document CHEMBL5357012, “Dual N6/C7-Substituted 7-Deazapurine and Tricyclic Ribonucleosides with Affinity for G Protein-Coupled Receptors” (ACS Med Chem Lett, 2024).

Sequences of proteins named here, by UniProt entry; tags and fusion partners are left off.
UniProt Q5BJF2, whole entry: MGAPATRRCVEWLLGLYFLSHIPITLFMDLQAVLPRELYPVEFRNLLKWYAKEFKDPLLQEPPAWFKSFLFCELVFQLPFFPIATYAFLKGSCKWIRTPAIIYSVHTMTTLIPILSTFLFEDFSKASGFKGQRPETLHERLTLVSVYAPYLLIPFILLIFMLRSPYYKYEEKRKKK

These compounds were tested against Sigma intracellular receptor 2 (Homo sapiens) (UniProt Q5BJF2) (assay: Inhibition of human sigma 2 receptor at 10 uM by microbeta scintillation counting method relative to control).

Row | inhibition [%] | SMILES
1 | < 50 | OC[C@H]1O[C@@H](n2cc(C(F)(F)F)c3c(NCc4ccccc4F)ncnc32)[C@H](O)[C@@H]1O
2 | < 50 | OC[C@H]1O[C@@H](n2cc(C(F)(F)F)c3c(NCc4ccc(Cl)cc4)ncnc32)[C@H](O)[C@@H]1O
3 | < 50 | OC[C@H]1O[C@@H](n2cc(C(F)(F)F)c3c(NCc4cccc(Cl)c4)ncnc32)[C@H](O)[C@@H]1O
4 | < 50 | OC[C@H]1O[C@@H](n2nc3c4c(ncnc42)N(Cc2ccccc2)C=C3)[C@H](O)[C@@H]1O
5 | < 50 | OC[C@H]1O[C@@H](n2cc(C(F)(F)F)c3c(NCc4ccccc4)ncnc32)[C@H](O)[C@@H]1O
